# In US12251434B2 (priority 2021, dated 2025):
# Tested on: hyaluronic acid
# Test: Inhibitory ability of hyaluronic acid inhibitor 4-MU on hyaluronic acid with overexpressed viral target, ELISA
# Assay type: cell-based
# Conditions: 4-MU 100 μM, summary of Table 5
substance,measurement,value
4-Methylumbelliferone,hyaluronic acid produced due to overexpression of the target sequence,reduced
